# According to article PMC5641120, “Small-molecule inhibitors of PD-1/PD-L1 immune checkpoint alleviate the PD-L1-induced exhaustion of T-cells” (Oncotarget, 2017):
# Molecular target: PD-1/PD-L1 immune checkpoint
# Experiment: PD1/PD-L1 checkpoint assay (ECs co-cultured with aAPCs, NFAT-luciferase reporter)
# Assay type: cell-based, human
# Settings: Hill fit of luciferase activity, 6 h co-culture of ECs and aAPCs
# Text: A T lymphocyte-like cell line (Jurkat) modified to constitutively express PD-1 and carrying a luciferase reporter gene driven by TCR-inducible NFAT response element (Effector Cells, ECs) was used in T cell activation experiments. When antigen-presenting surrogate CHO cells, constitutively expressing the TCR agonist and PD-L1 (aAPCs) are presented to these ECs in co-culture, TCR signaling is repressed by PD-1 and the reporter remains silenced. Agents efficiently interfering with the PD-1/PD-L1 interaction activate the expression of the reporter gene resulting in the increase in luminescence intensity.
# To verify the potency of BMS compounds in the inhibition of the PD-1/PD-L1 interactions, a cell-based model of the PD-1/PD-L1 immune checkpoint blockade was used. […]
# The aAPCs were seeded in white 96-well plates at the density of 10 000 per well in the culture medium 24 h prior to the assay. […] After incubation for 10 min, luminescence was quantified using FlexStation 3 (Molecular Devices). Half maximal effective concentrations (EC50) and maximal luminescence values (RLUmax) were determined by fitting the Hill equation to the experimental data.
row,Substance,EC50 [nM]
1,nivolumab: anti-PD-1 antibody,1.15 ± 0.36
2,pembrolizumab: anti-PD-1 antibody,0.551 ± 0.052
